# Screening data deposited in PubChem by National Center for Advancing Translational Sciences (NCATS).
# B2AR arrestin – beta2AR (human) beta-arrestin recruitment activity; P07550; beta-arrestin recruitment to beta2AR, cell-based reporter; Potency, µM (series often up to 46.1 µM), without a hit: at the top dose activation, hits mostly activators; 330,000 compounds, 0.02% hits;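 also: potency is read from the fitted curve at half-maximal effect; 0% = DMSO controls and full agonism = EC100 isoproterenol or metaproterenol; nearly all actives have a fitted effect of over 65% in size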
# FBPA coupling cs – inhibits coupling enzyme system, counter-screen for aldolase hits; coupling enzyme system counterscreen, AmpLite Red fluorescence; activity change, negative = inhibition, % at 58.2 µM, hits read low; 290,000 compounds, 0.67% hits; in the data active = activity change below about -30%; also: % is scaled to controls: 0 for no effect and ±100 for the full control effect
#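 Counterscreen lacking aldolase: glyceraldehyde-3-phosphate coupling-enzyme reagent preincubated 10 min at RT with compound (at 57.5 uM final), then substrate/coupling system with AmpLite Red added; fluorescence read at 525/598 nm after 20 min RT.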
# GALK inh – inhibitors of human galactokinase. Potency, µM (titrated, usually from 57.5 µM), inactives show at the top dose activity change, negative = inhibition, hits mostly inhibitors. 270,000 compounds, 0.007% hits. P51570. Purified GALK, Kinase-Glo residual ATP luminescence; also: potency is read from the fitted curve at half-maximal effect; % is scaled to controls: 0 for no effect and ±100 for the full control effect
#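 ATP-depletion format; final 35 uM ATP, 100 uM D-galactose, 5 nM enzyme; pH 8.0 HEPES/Mg2+ buffer; 60 min RT; luminescence read 10 min after detection reagent.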
# miR-21 FLuc – miR-21 reporter, rising signal | HeLa miR-21 FLuc reporter, luciferase, 48 h | Potency, µM (top dose mostly 38.3 µM), inactives show at the top dose reporter change, positive = more light | 340,000 tested, under 10 active | AID 2288; active = well fitted rising curve with a large enough effect; inconclusive = small, poorly fitted or top-dose-only effect; inactive = no such curve, though single readings can be large or run the other way;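 further: % of control where 0% means no effect; miR-21 action dims this reporter so a rising signal means less miR-21 action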
#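 Using DMEM plus 10% FBS, HeLa miR-21-FLuc cells are incubated with test compounds (final up to about 40uM) for 48 hours; firefly luciferase signal is then imaged following reagent-mediated lysis.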
# uPA generation – blocks generation of uPA at the cell surface; Potency, µM (doses to about 38.3 µM), without a hit: top-dose activity change, negative = inhibition, most hits filed as inhibitors; AID 540303; 330,000 compounds, 0.31% hits; cell surface uPA generation assay, qHTS; active = well fitted inhibition curve with a large enough effect; inconclusive = small, poorly fitted or top-dose-only effect; inactive = no such curve, though single readings can be large or run the other way; tested in mouse RAW 264.7 cells; also: potency is read from the fitted curve at half-maximal effect; % is scaled to controls: 0 for no effect and ±100 for the full control effect; nearly all actives have a fitted effect of over 55% in size
# Giardia killer – Giardia lamblia killing; Giardia lamblia trophozoite viability; activity change, % at 7.66 µM, hits read low; 340,000 compounds, 0.15% hits; in the data active = activity change below about -80%; inconclusive = between about -30% and that limit;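 also: parasites exposed to compound for two days anaerobically before the ATP read; % is scaled to controls: 0 for no effect and ±100 for the full control effect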
#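 Anaerobic 48 hrs incubation at 37 deg C of 100 trophozoites/well with test compounds; ATPLite 1-Step luminescence, 15-30 min RT, reports cellular ATP as viability.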
# Numbers without * were called inactive; ? = inconclusive; / = not tested or not shown; ! = a repeat was not active. Hits are enriched below; roughly 0.92% of the tested compounds scored in any of these assays. Unless noted, calls follow the shape of the dose curve; as a rule, active = well fitted curve in the direction sought with a large enough effect; inconclusive = small, poorly fitted or top-dose-only effect, or another doubt; inactive = no such curve, though single readings can be large; an effect the other way counts as inactive or inconclusive.
[1] CCN(CC)CCNC(=O)c1ccc(N2CCCCC2)c(NS(=O)(=O)c2ccc(C)cc2)c1
[2] CCOC(=O)CNC(=O)O[C@H]1C(=O)c2cc(OC)ccc2O[C@@H]1c1ccc(OC)c(Br)c1
[3] Oc1ccccc1/C=N/Nc1nc2ccccc2o1
[4] Brc1ccc(/C=N/Nc2nc3ccccc3o2)cc1
[5] CC1Sc2ccc(C(=O)NCc3ccccn3)cc2NC1=O (stereo unspecified)
screen / no.	1	2	3	4	5
uPA generation	-1.4%	/	0.7%	-22.6%	3.16µM*
B2AR arrestin	0.4%	/	14.1µM*	3.9%	0.0%
GALK inh	0.1%	/	4.0%	-0.9%	/
FBPA coupling cs	-3.2	1.7	-1.6	0.7	/
Giardia killer	2.8	/	-1.4	-9.5	0.2
miR-21 FLuc	21.0%	/	0.6%	-64.1%	/

[6] O=C(Nc1cccc(S(=O)(=O)N2CCCCC2)c1)c1ccc([N+](=O)[O-])o1
[7] O=C(Nc1ccccc1N1CCOCC1)c1ccc([N+](=O)[O-])o1
[8] Cc1ccc(NC(=O)c2cc([N+](=O)[O-])ccc2N2CCOCC2)cc1S(=O)(=O)N1CCOCC1
[9] O=C(Nc1ccccc1N1CCN(C(=O)c2ccc(Cl)cc2)CC1)c1ccc([N+](=O)[O-])o1
[10] Cc1ccc(NC(=O)c2ccc([N+](=O)[O-])o2)cc1S(=O)(=O)N1CCOCC1
screen / no.	6	7	8	9	10
uPA generation	-16.7%	-5.5%	-8.4%	-18.0%	-17.0%
B2AR arrestin	0.1%	-0.3%	-0.9%	0.2%	-0.1%
GALK inh	-2.0%	-3.2%	-5.1%	-3.0%	-1.3%
FBPA coupling cs	-5.5	/	/	/	-2.7
Giardia killer	-96.1*	-91.8*	-21.6	-89.3*	-90.8*
miR-21 FLuc	?	-8.4%	-2.5%	-3.2%	?

[11] Cc1csc2nc(COc3ccc(NC(=O)COc4ccccc4F)cc3)cc(=O)n12
[12] COc1cccc(CNc2nccn(-c3cc(C)cc(C)c3)c2=O)c1
[13] O=C(Nc1ccc(N2CCOCC2)c(Cl)c1)c1cccnc1Cl
[14] CC(=O)N1CCN(c2ccc(NC(=O)c3ccc(Br)o3)cc2Cl)CC1
[15] CC(C)C(=O)N1CCN(c2ccc(NC(=O)c3ccc([N+](=O)[O-])o3)cc2Cl)CC1
screen / no.	11	12	13	14	15
uPA generation	/	/	-0.9%	4.3%	-13.2%
B2AR arrestin	/	/	-0.2%	0.4%	0.1%
GALK inh	/	/	-0.6%	2.6%	-3.8%
FBPA coupling cs	/	/	-5.2	-15.1	-10.0
Giardia killer	/	/	6.6	2.1	-87.9*
miR-21 FLuc	-7.8%	3.5%	-21.3%	-16.9%	9.5%

[16] CCCC(=O)N1CCN(c2ccc(NC(=O)c3ccc([N+](=O)[O-])o3)cc2Cl)CC1
[17] CN1CCN(c2ccc(NC(=O)c3ccc([N+](=O)[O-])o3)cc2Cl)CC1
[18] COc1c(C)cccc1C(=O)Nc1ccc(N2CCOCC2)c(Cl)c1
[19] O=C(Nc1ccc(N2CCOCC2)c(Cl)c1)c1ccc([N+](=O)[O-])o1
[20] COc1ccc(CCNC(=O)CCCn2c(=O)c3ccccc3n(CC(=O)Nc3ccc(C)cc3Cl)c2=O)cc1OC
screen / no.	16	17	18	19	20
uPA generation	-11.5%	-18.1%	-3.6%	?	/
B2AR arrestin	0.0%	0.3%	-0.6%	0.2%	/
GALK inh	-1.0%	6.3%	0.1%	0.0%	/
FBPA coupling cs	-8.8	-2.1	-35.0*	-23.1	/
Giardia killer	-81.8*	?	-4.2	-89.5*	/
miR-21 FLuc	19.7%	-3.3%	-55.4%	-25.5%	12.9%

[21] COC(=O)CCCC1=CC2=CC(=O)C(C)(OC(=O)c3cccs3)C(=O)C2=CN1CCc1ccccn1 (stereo unspecified)
[22] C=CCN1C=C2C(=O)C(C)(OC(=O)c3cccs3)C(=O)C=C2C=C1CCCC(=O)OC (stereo unspecified)
[23] COc1ccc(-c2ccc(NC(=O)c3ccco3)cc2)nn1
[24] CC(C)(C)c1ccc(Oc2ccc(NC(=O)c3ccco3)cn2)cc1
[25] CCOC(=O)c1sc(NC(=O)CCc2ccccc2)nc1C
screen / no.	21	22	23	24	25
uPA generation	-1.8%	2.1%	-16.0%	1.26µM*	4.47µM*
B2AR arrestin	-0.8%	0.0%	-0.3%	3.5%	-1.6%
GALK inh	-3.5%	-1.7%	/	-2.4%	9.1%
FBPA coupling cs	-30.7*!	-7.3	/	-3.3	-3.3
Giardia killer	-21.4	-0.2	-93.1*	-10.4	25.0
miR-21 FLuc	3.1%	8.6%	/	?	1.1%

# In another format: four of the compounds above.
nr	molecule	uPA generation	B2AR arrestin	GALK inh	FBPA coupling cs	Giardia killer	miR-21 FLuc
21	COC(=O)CCCC1=CC2=CC(=O)C(C)(OC(=O)c3cccs3)C(=O)C2=CN1CCc1ccccn1 (stereo unspecified)	-1.8%	-0.8%	-3.5%	-30.7*!	-21.4	3.1%
22	C=CCN1C=C2C(=O)C(C)(OC(=O)c3cccs3)C(=O)C=C2C=C1CCCC(=O)OC (stereo unspecified)	2.1%	0.0%	-1.7%	-7.3	-0.2	8.6%
23	COc1ccc(-c2ccc(NC(=O)c3ccco3)cc2)nn1	-16.0%	-0.3%	/	/	-93.1*	/
24	CC(C)(C)c1ccc(Oc2ccc(NC(=O)c3ccco3)cn2)cc1	1.26µM*	3.5%	-2.4%	-3.3	-10.4	?

# (continued)
[26] CCOC(=O)c1sc(NC(=O)CC(C)c2ccccc2)nc1C (stereo unspecified)
[27] COC(=O)C1=C(C(=O)OC)[C@@H]2N(Cc3ccccc3)c3ccccc3[C@@]23C[C@@H](C(=O)OC)N(C(=O)NCc2ccccc2)C3=C1
[28] Cc1onc(-c2cccc(Cl)c2Cl)c1C(=O)O/N=C(\N)c1ccc([N+](=O)[O-])o1
[29] Cc1onc(-c2ccccc2)c1C(=O)O/N=C(\N)c1ccc([N+](=O)[O-])o1
[30] CCC(=O)NC1=C(Nc2ccc(N)cc2)C(=O)c2ccccc2C1=O
screen / no.	26	27	28	29	30
uPA generation	-12.9%	/	4.3%	4.47µM*	-16.3%
B2AR arrestin	-0.2%	/	-0.9%	-0.9%	0.4%
GALK inh	-3.0%	/	-1.8%	0.5%	/
FBPA coupling cs	1.0	0.1	-3.1	3.2	-28.3
Giardia killer	-22.7	/	6.1	?	-16.5
miR-21 FLuc	14.2%	/	12.4%	8.7%	-20.9%

[31] CCC(=O)N(C1=C(NC(C)C)C(=O)c2ccccc2C1=O)C(C)C
[32] CC(=O)c1cccc(S(=O)(=O)N2CCN(c3nc(-c4cccs4)nc4ccccc34)CC2)c1
[33] COc1cc(OC)cc(C(=O)Nc2nc(-c3nnn(-c4ccc(F)c(Cl)c4)c3C)ns2)c1
[34] Cc1ccc(Cn2cc(CCC(=O)NC3CCC(C)CC3)c3ccccc32)cc1 (stereo unspecified)
[35] Cc1ccc(C2NC(=O)NC3=C2CCc2ccccc23)cc1 (stereo unspecified)
screen / no.	31	32	33	34	35
uPA generation	9.3%	/	/	/	7.1%
B2AR arrestin	-0.9%	/	/	/	-0.7%
GALK inh	-1.3%	/	/	/	-1.1%
FBPA coupling cs	-33.8*	/	/	/	-39.9*
Giardia killer	-3.0	-20.4	/	/	-1.7
miR-21 FLuc	7.8%	/	-5.4%	-15.4%	-49.9%

[36] COc1ccc2c(c1)C1=C(CC2)C(c2ccc(C)cc2)NC(=S)N1 (stereo unspecified)
[37] COc1cccc(C2NC(=S)NC3=C2CCc2ccccc23)c1 (stereo unspecified)
[38] Cc1ccsc1/C=N/NC(=O)CSCc1ccc(Cl)cc1
[39] COc1ccc(/C=C2\CCc3c2nc2ccccc2c3C(=O)O)cc1OC
[40] COc1ccc(/C=C2\CCCc3c2nc2ccccc2c3C(=O)O)cc1OC
screen / no.	36	37	38	39	40
uPA generation	9.1%	4.4%	9.3%	3.55µM*	/
B2AR arrestin	0.1%	-0.6%	0.2%	4.5%	0.3%
GALK inh	-0.6%	0.7%	-1.3%	11.3%	-1.4%
FBPA coupling cs	-3.1	-43.3*	-34.3*	0.1	-32.8*
Giardia killer	10.1	5.9	-20.9	?	/
miR-21 FLuc	10.5%	-2.8%	-1.7%	-28.1%	-0.8%

[41] COC(=O)N1C2CC(=O)O[C@@H]3c4cc5c(cc4[C@]1(C)[C@@]3(Br)c1ccccc12)OCO5
[42] CCOc1ccc(S(=O)(=O)N2CCN(c3nc(-c4ccccc4)nc4ccccc34)CC2)cc1
[43] Cc1ccc(NC(=S)NNC(C)(C)C)cc1
[44] O=C(CSc1nc2cc(Cl)c(Cl)cc2[nH]1)c1ccc2c(c1)OCO2
[45] O=C(CSc1nc2ccc(Cl)cc2[nH]1)c1ccc2c(c1)OCO2
[46] COC(=O)c1ccc(C2NC(c3ccc4c(c3)OCO4)=CC(c3ccccc3O)N2)cc1 (stereo unspecified)
screen / no.	41	42	43	44	45	46
uPA generation	/	/	-0.9%	-0.2%	-5.0%	/
B2AR arrestin	/	/	8.91µM*	-0.7%	5.3%	/
GALK inh	/	/	-0.7%	-2.7%	-0.8%	/
FBPA coupling cs	-0.3	/	1.9	-5.4	-36.1*	/
Giardia killer	/	-0.8	8.1	-4.7	3.4	-20.4
miR-21 FLuc	/	/	-19.8%	-28.6%	-15.4%	/
